Experimental data reported in patent publication US9763910B1, “Combination therapy for treating cancer” (Huanggang Normal University, priority 2016, dated 2017).

Columns and labels:
CL1-5 lung cancer cells [1] = experiment: Cell cycle distribution in CL1-5 cells by flow cytometry (PI staining); assay type: cell-based, human; settings: 24 hs; 6.3 μmol/L 5-demethylnobiletin and/or 10 nmol/L docetaxel
Description: (§1) All treatment drugs were prepared in a 10% DMSO solution.
(§2) The treated cells were incubated for 24 hs before collected in a centrifuge tube. The cells were then washed with PBS at 4° C. and n mixed with 70% ethanol pre-cooled at −20° C. before kept at 4° C. overnight. Next, the cells were centrifuged at 1000 rpm to remove ethanol and the cell density was adjusted to (1-2)×10^6 cells/ml by add PBS. Following adding PI and DNase-free RNase to respectively reach final concentrations of 50 μg/ml and 50 µg/ml, the cells were stained for cell cycle and apoptosis studies by flow cytometry. All studies were repeated 3 times and the averages were calculated.

CL1-5 lung cancer cells [2] = experiment: Apoptosis in CL1-5 cells by flow cytometry; assay type: cell-based, human; settings: 24 hs; 6.3 μmol/L 5-demethylnobiletin and/or 10 nmol/L docetaxel
Description: as §1, §2

[3] = system: CL1-5 human lung cancer cells engrafted in BALB/c nude mice; experiment: Tumor growth in CL1-5 cell-engrafted BALB/c nude mice; settings: 25 μmol docetaxel and/or 15.5 μmol 5-demethylnobiletin once every 2 days for 14 days, sacrificed after another 14 days

Row | SMILES | G2/M phase cells, share of total cells (CL1-5 lung cancer cells [1]) | percentage of apoptotic cells (CL1-5 lung cancer cells [2]) | average tumor size [3]
1 | COc1ccc(-c2cc(=O)c3c(O)c(OC)c(OC)c(OC)c3o2)cc1OC [5-Hydroxy-6,7,8,3′,4′-pentamethoxyflavone] | 31.3% | 9.7% | –
2 | CC(=O)O[C@@]12CO[C@@H]1C[C@H](O)[C@@]1(C)C(=O)[C@H](O)C3=C(C)[C@@H](OC(=O)[C@H](O)[C@@H](NC(=O)OC(C)(C)C)c4ccccc4)C[C@@](O)([C@@H](OC(=O)c4ccccc4)[C@H]21)C3(C)C [docetaxel, 1,7β,10β-trihydroxy-9-oxo-5β,20-epoxytax-11-ene-2α,4,13α-triyl 4-acetate 2-benzoate 13-{(2R,3S)-3-[(tert-butoxycarbonyl)amino]-2-hydroxy-3-phenylpropanoate}] | 23.5% | 7.8% | 1230 mm^3
